The values below are quoted from earlier work in paper PMC8200006.

pKd: −log10 of the molar value.

The series addresses Amyloid beta (Homo sapiens) (UniProt P05067). In words: fluorescence.

On to Calmodulin (from UniProt P0DP23), for which the pKd (as a rule, the Kd on a negative log10 scale, so that one unit is a factor of ten) is 9.00.
